Apparent affinities of Ab-95 variants for a coronavirus HR2 peptide

The measurements come from Engelhart et al. 2022 (doi:10.1038/s41597-022-01779-4) through the FLAb antibody collection.

Target: peptide PDVDLGDISGINAS, taken from heptad repeat 2 (HR2) of SARS-CoV-2 spike.

Ab-95 is the parent antibody, in scFv form: VH, then a (GGGGS)3 linker, then VL. The heavy chain is unchanged in all variants.
VH: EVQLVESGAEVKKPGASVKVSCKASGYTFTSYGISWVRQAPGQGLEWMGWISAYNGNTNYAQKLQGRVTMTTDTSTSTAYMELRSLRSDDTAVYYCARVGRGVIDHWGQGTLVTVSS
VL: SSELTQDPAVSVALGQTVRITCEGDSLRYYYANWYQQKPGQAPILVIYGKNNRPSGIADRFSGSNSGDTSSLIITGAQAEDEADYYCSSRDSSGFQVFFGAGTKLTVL

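The starting antibody came from a phage panning campaign against this peptide. AAYL52 was designed without a model: most single CDR substitutions and a random sample of double and triple ones. The assay is AlphaSeq: two haploid yeast populations carry antibody and antigen on their surface. Binding brings cells together so that they mate, and sequencing counts the barcode pairs among the diploids. Scores were corrected for input abundance and mapped to Kd with protein pairs of known affinity run in the same pool. Mating was done three times.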

Changes read parent residue, position, new residue, counted from the first residue of the VL shown. Values are log10 of the apparent Kd in nM; lower means stronger binding. "ND" means that the variant was in the library but no mating with the target was seen in that replicate; the authors take this as a sign of poor binding, and no number exists. In this assay the parent's reference entry averaged 2.31; its copy inside this library read 2.25.

changes	log10 Kd, replicates	signal with controls
Y30R+Y31C+V97P	1.88 / 1.99 / 1.65	7 of 9 (3.75)
S88M+S89P+F95N	2.61 / 3.12 / ND	3 of 9 (3.37)
G49P+G94S+V97K	ND / ND / ND	3 of 9 (4.05)
S89T+D91C+V97T	2.64 / 2.31 / 2.96	5 of 9 (3.16)
Y29D+D91I+V97R	4.02 / ND / 3.39	3 of 9 (4.67)
G24W+N33G+G49K	ND / 4.17 / ND	2 of 9 (3.57)
N33M+S89P+G94S	4.55 / ND / ND	4 of 9 (3.69)
Y30C+K50N+S89F	2.98 / 2.89 / 2.18	3 of 9 (3.86)
R28S+K50G+N51K	2.31 / 2.02 / 2.10	3 of 9 (4.74)
Y29V+D91A+G94A	ND / ND / 3.10	1 of 9 (3.27)
N52M+R53W+S88P	3.79 / ND / ND	1 of 9 (3.36)
S89R+V97L	ND / 3.17 / ND	0 of 9
N33D+G49A+S88P	4.26 / ND / ND	3 of 9 (4.29)
S55L+S89G	2.06 / 2.36 / 1.82	2 of 9 (4.09)
E23Y+Y29V+G94M	3.09 / 3.45 / ND	2 of 9 (3.40)
E23R+G24W+G94Y	4.69 / ND / 3.41	0 of 9
G24R+P54C+S92Q	2.95 / 3.20 / 3.44	2 of 9 (5.04)
S55L+Q96T	1.94 / 2.48 / 2.32	2 of 9 (3.94)
E23K+Y29A+S89W	2.25 / 2.05 / 2.34	3 of 9 (3.36)
G24W+S26Y+L27F	4.39 / 3.30 / 3.55	5 of 9 (4.03)
G49E+S88H+S93V	3.75 / 3.78 / ND	3 of 9 (4.31)
D25N+R28V+N51Y	ND / 5.64 / ND	1 of 9 (3.81)
G24W+S93P	4.60 / 4.66 / ND	5 of 9 (3.75)
Y31P+K50Q+N51G	1.27 / 1.28 / 0.81	6 of 9 (4.44)
R28I+N33Q	3.79 / 3.85 / 3.13	3 of 9 (4.76)
D25M+K50R+S89H	4.00 / 3.21 / 2.65	0 of 9
Y29L+G49D+F95M	2.69 / 3.00 / ND	2 of 9 (4.25)
G24I+N52W+F95G	3.41 / ND / ND	4 of 9 (3.76)
G24A+S92T+Q96K	3.12 / 2.70 / 3.51	2 of 9 (4.33)
A32M+S55V+R90V	ND / 3.72 / 4.03	3 of 9 (3.26)
Y31H+S89L+D91H	ND / 3.37 / ND	5 of 9 (3.59)
A32W+S93A+Q96K	3.46 / ND / 3.76	2 of 9 (3.24)
R53K+P54V+F95L	3.98 / 3.16 / 2.79	2 of 9 (3.71)
Y29D+S88V+F98M	ND / ND / 3.32	3 of 9 (3.41)
G24R+Y31Q+A32L	ND / ND / ND	0 of 9
S26E+S55R+S89P	4.01 / ND / ND	1 of 9 (3.34)
E23Q+R28G+Y30V	1.26 / 1.17 / 0.61	5 of 9 (4.44)
Y30A+N33A+V97N	4.38 / 2.96 / 3.27	1 of 9 (4.39)
Y31A+A32M+N33Y	3.55 / 3.13 / ND	1 of 9 (3.71)
N52I+V97E	ND / ND / ND	3 of 9 (3.62)
L27C+Q96F+F98L	ND / 2.74 / ND	0 of 9
G49P+N51G+P54I	4.69 / ND / ND	4 of 9 (4.32)
N33W+S88M+Q96N	ND / ND / 3.49	1 of 9 (5.31)
L27V	3.66 / 3.18 / 3.44	0 of 9
D91R+S93P+F98G	ND / ND / 3.91	1 of 9 (3.62)
G24D+K50F+R53Q	3.89 / ND / ND	2 of 9 (4.72)

The first 3 entries again:

| changes | log10 Kd, replicates | signal with controls |
|---|---|---|
| Y30R+Y31C+V97P | 1.88 / 1.99 / 1.65 | 7 of 9 (3.75) |
| S88M+S89P+F95N | 2.61 / 3.12 / ND | 3 of 9 (3.37) |
| G49P+G94S+V97K | ND / ND / ND | 3 of 9 (4.05) |

Nonspecific signal, from three strains lacking the peptide, appeared in 28% of pairings of library AAYL52, centred on 3.91 (5% of these signals below 2.90); values are not corrected for it. Also given: how often the same scFv was detected with the empty control strains, with their mean in brackets.